# Source: patent US8030341B2, “Dmt-derivative compounds and related compositions and methods of use” (priority 2005, dated 2011)
# The chains behind the UniProt entries cited, without tags or fusion partners. Where a name states a change or a piece, a line headed by the entry shows the natural chain unless it says otherwise.
# UniProt P32300, whole entry: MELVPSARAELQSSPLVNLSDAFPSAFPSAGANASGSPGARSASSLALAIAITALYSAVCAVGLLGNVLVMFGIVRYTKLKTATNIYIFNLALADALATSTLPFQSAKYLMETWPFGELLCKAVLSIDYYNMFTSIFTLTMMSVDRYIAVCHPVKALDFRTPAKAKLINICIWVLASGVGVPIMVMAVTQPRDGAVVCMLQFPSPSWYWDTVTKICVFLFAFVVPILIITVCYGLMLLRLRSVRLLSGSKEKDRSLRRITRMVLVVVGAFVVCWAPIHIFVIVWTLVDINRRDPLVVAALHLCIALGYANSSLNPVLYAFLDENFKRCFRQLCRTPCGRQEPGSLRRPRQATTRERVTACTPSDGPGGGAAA
# Biological target: T1, δ-opioid receptor (Mus musculus, UniProt P32300)
# T1 construct: from tissue; host or cells: isolated mouse vas deferens
# Test: mouse vas deferens (MVD) bioassay
# Format: cell-based
# Details: Table 2; versus deltorphin II as agonist
# Description: Bioorg. Med. Chem., 11: 675-678 (2003). The isolated tissues were suspended in organ baths containing balanced salt solutions in a physiological buffer, pH 7.5. […]
smiles,measurement,value
"Cc1cc(O)cc(C)c1C[C@H](N)C(=O)N1Cc2ccccc2C[C@H]1C(=O)O [H-Dmt-Tic-OH, reference compound]",MVD Antagonist pA2,8.48
